Compound activity as filed in PubChem.
Compounds with a hit are over-represented: about 16% of the library has one in this group of screens.
TDP1 block – blocks human tyrosyl-DNA phosphodiesterase 1 | hit rate 0.28% among 350,000 | Potency, µM (top dose mostly 130 µM), hits mostly inhibitors | Q9NUW8 | AID 485290 | recombinant TDP1, AlphaScreen DNA substrate cleavage; also: nearly all actives have a fitted effect of over 40% in size
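E. coli-derived human Tdp1, 1 nM final. Cpd preinc 15 min RT; substrate 15 nM final, 5 min RT; AS bead mix 10 ug/ml final, 10 min RT. Signal loss = tyrosine-FITC cleavage. No-enzyme wells = max signal.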
miR-21 reporter – miR-21 reporter, rising signal; HeLa miR-21 FLuc reporter, luciferase, 48 h; Potency, µM (doses to about 38.3 µM); 340,000 tested, under 10 active; AID 2288; active = well fitted rising curve with a large enough effect; inconclusive = small, poorly fitted or top-dose-only effect; inactive = no such curve, though single readings can be large or run the other way;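 further: miR-21 action dims this reporter so a rising signal means less miR-21 action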
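HeLa cells stably expressing CMV-driven firefly luciferase with a downstream miR-21 binding sequence, endogenously expressing miR-21, were treated with titrations (up to about 40uM final) for 48 hours at 37 degree Celsius. Luciferase luminescence was read after lysis.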
TDP1 cell noCPT – qHTS for Inhibitors of human tyrosyl-DNA phosphodiesterase 1 (TDP1): qHTS in cells in absence of CPT; DT40 Tdp1-/- hTDP1 cells, no CPT, ATP luminescence, 48 h; Potency, µM (series often up to 46.2 µM), hits mostly inhibitors; hit rate 15% among 420,000; also: nearly all actives have a fitted effect of over 55% in size
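DT40 Tdp1-/-;hTDP1 cells, no CPT (DMSO vehicle only), 400 cells/well; compounds pin-transferred; ≥48 hr, 37 °C; CellTiter-Glo 30 min RT dark, luminescence read.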
DT40 TDP1 CPT – growth inhibition of DT40 Tdp1-/-;hTDP1 cells with camptothecin (screen for TDP1 inhibitors) | Potency, µM (doses to about 46.2 µM), usual class: inhibitors | chicken DT40 Tdp1-/-;hTDP1 cells + 20 nM CPT, ATP luminescence, 48 h | hit rate 12% among 420,000; also: nearly all actives have a fitted effect of over 55% in size
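Cell growth measured by CellTiter-Glo luminescence after a minimum 48 h, 37 C compound exposure with 20 nM CPT in Tdp1-knockout DT40 cells stably expressing hTDP1, seeded 400/well; qHTS titration format.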
uPA surface inh – inhibitors of cell surface uPA generation | cell surface uPA generation assay, qHTS | Potency, µM (highest dose often 38.3 µM), most hits filed as inhibitors | hit rate 0.31% among 330,000 | AID 540303; active = well fitted inhibition curve with a large enough effect; inconclusive = small, poorly fitted or top-dose-only effect; inactive = no such curve, though single readings can be large or run the other way; tested in mouse RAW 264.7 cells; also: nearly all actives have a fitted effect of over 55% in size
Each line names hits and unclear results; the compound was inactive in the other large screens. Unless noted, calls follow the shape of the dose curve; as a rule, active = well fitted curve in the direction sought with a large enough effect; inconclusive = small, poorly fitted or top-dose-only effect, or another doubt; inactive = no such curve, though single readings can be large; an effect the other way counts as inactive or inconclusive.

Cc1ccc(-n2nc(C)c3c(-c4cccs4)c(C#N)c(N)nc32)cc1	TDP1 cell noCPT 23µM, DT40 TDP1 CPT inconclusive
N#Cc1c(N)nc2c(c1-c1ccc(F)cc1)c(=O)nc1sccn12	TDP1 cell noCPT 2.6µM
O=C(c1cc2nc(-c3ccco3)cc(C(F)(F)F)n2n1)N1CCc2ccccc2C1	TDP1 cell noCPT 23µM, DT40 TDP1 CPT inconclusive
O=C(c1cccc(F)c1)N1CCN(C(=O)c2cc3nc(-c4ccco4)cc(C(F)(F)F)n3n2)CC1	TDP1 cell noCPT 15µM
O=C(c1cnn2c(C(F)(F)F)cc(-c3ccc(F)cc3)nc12)N1CCc2ccccc2C1	TDP1 cell noCPT 21µM, DT40 TDP1 CPT inconclusive, uPA surface inh inconclusive
CN1C(C(=O)N2CCc3ccccc3C2)=CC(c2ccc(F)cc2)=NS1(=O)=O	TDP1 cell noCPT 26µM, DT40 TDP1 CPT inconclusive
CCCCn1c(N)c(N(CCC(C)C)C(=O)COC(=O)c2cccnc2Cl)c(=O)[nH]c1=O	none (no result: miR-21 reporter)
O=C(CC1C=Cc2ccccc2N1C(=O)c1ccccc1)c1ccccc1 (stereo unspecified)	DT40 TDP1 CPT inconclusive (no result: TDP1 block)
Cc1cc(Nc2cccc(Cl)c2C)n2nc(Cc3ccccc3)nc2n1	DT40 TDP1 CPT inconclusive (no result: uPA surface inh)
CCCn1c(SCC(=O)N2CCCCC2)nnc1-c1ccccn1	none (no result: TDP1 cell noCPT, DT40 TDP1 CPT, uPA surface inh)
CC1CCc2cc(F)ccc2N1C(=O)CSc1nnc2c3ccccc3n(C)c2n1 (stereo unspecified)	TDP1 cell noCPT 21µM, DT40 TDP1 CPT 18µM
CCCn1c(SCC(=O)N2c3ccc(F)cc3CCC2C)nnc1-c1ccccn1 (stereo unspecified)	TDP1 cell noCPT 21µM, DT40 TDP1 CPT inconclusive
CC1Cc2ccccc2N1C(=O)CSc1nnc2c(n1)[nH]c1ccc(F)cc12 (stereo unspecified)	TDP1 cell noCPT 21µM, DT40 TDP1 CPT inconclusive
COc1ccccc1OCCSc1nc2ccc([N+](=O)[O-])cc2s1	TDP1 cell noCPT inconclusive, DT40 TDP1 CPT inconclusive
O=C1CC(c2ccc(F)cc2)Cc2nc(NCC3CCCO3)ncc21 (stereo unspecified)	TDP1 cell noCPT inconclusive, DT40 TDP1 CPT inconclusive (no result: uPA surface inh)
Cc1cc(NC(=O)CS(=O)c2cn(Cc3cccc(Cl)c3)c3ccccc23)no1 (stereo unspecified)	TDP1 cell noCPT 16µM, DT40 TDP1 CPT 21µM (no result: TDP1 block, miR-21 reporter, uPA surface inh)
Cc1cc(NC(=O)CS(=O)(=O)c2cn(Cc3cccc(Br)c3)c3ccccc23)no1	TDP1 cell noCPT inconclusive, DT40 TDP1 CPT 26µM (no result: TDP1 block, miR-21 reporter, uPA surface inh)
Cc1cc(NC(=O)CS(=O)(=O)c2cn(Cc3ccccc3Cl)c3ccccc23)no1	TDP1 cell noCPT inconclusive, DT40 TDP1 CPT inconclusive
Nc1nnc(SCC(=O)Nc2ccc(N3CCOCC3)cc2)s1	none (no result: TDP1 block, miR-21 reporter)
COc1ccc(-c2nc(SCC(=O)NCc3ccccc3Cl)n[nH]2)cc1	TDP1 cell noCPT 7.3µM, DT40 TDP1 CPT 5.8µM (no result: uPA surface inh)
CCOc1ccccc1CNC(=O)CSc1n[nH]c(-c2ccccc2)n1	TDP1 cell noCPT inconclusive, DT40 TDP1 CPT inconclusive (no result: uPA surface inh)
CCOc1cc(CNC(=O)CSc2n[nH]c(-c3ccccc3)n2)cc(OCC)c1OCC	TDP1 cell noCPT inconclusive, DT40 TDP1 CPT 21µM (no result: uPA surface inh)
COc1ccc(-c2nc(SCC(=O)NCCc3ccccc3)n[nH]2)cc1	TDP1 cell noCPT inconclusive, DT40 TDP1 CPT inconclusive (no result: uPA surface inh)
O=C(O)c1ccc(N2C(=O)CSC2c2cccc([N+](=O)[O-])c2)cc1 (stereo unspecified)	none
COc1ccc(-n2cnnc2SCC(=O)Nc2ccc(N3CCOCC3)cc2)cc1	none
CCCNC(=O)c1ccc(N2CCC3(CC2)CC(c2cccc(Br)c2)=NO3)c([N+](=O)[O-])c1	TDP1 cell noCPT 8.2µM, DT40 TDP1 CPT 6.5µM (no result: TDP1 block)
CCCNC(=O)c1ccc(N2CCC3(CC2)CC(c2cccc(Br)c2)=NO3)c(N)c1	TDP1 cell noCPT inconclusive, DT40 TDP1 CPT inconclusive (no result: miR-21 reporter)
Cc1ccc(CNC(=O)c2ccc(N3CCC4(CC3)CC(c3cccc(Br)c3)=NO4)c(N)c2)cc1	TDP1 cell noCPT 5.8µM, DT40 TDP1 CPT 6.5µM (no result: miR-21 reporter)
Cc1ccc(CNC(=O)c2ccc(N3CCC4(CC3)CC(c3cccc(Br)c3)=NO4)c(NC(=O)c3ccc(Br)cc3)c2)cc1	none (no result: miR-21 reporter)
O=C(NCc1ccccn1)c1ccc(N2CCCC2)c([N+](=O)[O-])c1	none
